Target: acetyl cholinesterase (AChE) (Electrophorus electricus, UniProt O42275)
Assay type: biochemical, electric eel
Conditions: read-out: IC50 (AChE), reference inhibitor
Procedure: AChE activity measurement was carried on based on Ellman's method.[46] […] The plate was shaken for 2 s and the increase in absorbance at 405 nm was monitored at 37 °C for 15 min.

Sequences of proteins named here, by UniProt entry; tags and fusion partners are left off. Residues count along the entry.
UniProt O42275, 24-633: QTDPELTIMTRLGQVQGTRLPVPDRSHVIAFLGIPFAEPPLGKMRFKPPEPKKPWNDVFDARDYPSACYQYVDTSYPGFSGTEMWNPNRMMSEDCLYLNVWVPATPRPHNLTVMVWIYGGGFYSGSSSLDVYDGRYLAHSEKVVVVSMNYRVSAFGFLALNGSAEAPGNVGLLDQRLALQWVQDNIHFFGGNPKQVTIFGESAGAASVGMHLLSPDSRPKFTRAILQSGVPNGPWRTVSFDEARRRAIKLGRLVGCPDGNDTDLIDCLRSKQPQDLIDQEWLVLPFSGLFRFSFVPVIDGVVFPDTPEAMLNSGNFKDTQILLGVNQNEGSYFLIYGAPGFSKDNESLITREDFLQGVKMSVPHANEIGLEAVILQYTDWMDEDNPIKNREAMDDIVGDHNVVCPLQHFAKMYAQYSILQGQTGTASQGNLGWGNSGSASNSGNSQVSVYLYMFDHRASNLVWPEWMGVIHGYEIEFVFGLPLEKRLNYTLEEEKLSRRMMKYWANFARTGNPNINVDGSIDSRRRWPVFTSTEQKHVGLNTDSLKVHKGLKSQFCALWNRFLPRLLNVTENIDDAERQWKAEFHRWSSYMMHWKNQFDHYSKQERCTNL

CNC(=O)Oc1ccc2c(c1)[C@]1(C)CCN(C)[C@@H]1N2C [eserine, reference compound]
IC50: 1170 nM

— publication PMC9088825, “N ^α-arylsulfonyl histamines as selective β-glucosidase inhibitors” (RSC Advances, 2018)
